Antibody variant affinities, Ab-14 heavy chain, assay 1

The measurements come from Engelhart et al. 2022 (doi:10.1038/s41597-022-01779-4) through the FLAb antibody collection.

Target peptide (SARS-CoV-2 spike, HR2 region): PDVDLGDISGINAS

Each scFv is VH, three GGGGS repeats, VL, as in the parent Ab-14, and differs from it in the CDRs of the heavy chain only.
VH: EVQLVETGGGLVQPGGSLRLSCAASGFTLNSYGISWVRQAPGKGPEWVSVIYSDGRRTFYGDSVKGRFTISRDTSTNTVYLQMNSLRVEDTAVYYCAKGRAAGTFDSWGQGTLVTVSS
VL: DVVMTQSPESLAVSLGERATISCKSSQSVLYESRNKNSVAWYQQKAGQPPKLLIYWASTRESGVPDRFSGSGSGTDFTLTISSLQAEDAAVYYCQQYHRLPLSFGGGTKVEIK

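The parent was found by panning a naive human phage display library on the peptide. The library (AAYL49) carries one to three amino acid substitutions per variant, with no insertions or deletions. The scFvs were displayed on barcoded MATa yeast, the peptide on MATalpha yeast. Mating (16 h, 30 °C) was followed by selection of diploids and sequencing of their barcodes. The ratio of observed to expected reads was calibrated, replicate by replicate, on BCL2-family standards whose Kd was known from biolayer interferometry. There are three technical replicates.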

Sequences are complete VH domains. All variants listed here change Y60 of the VH, counted from its first residue. Values are apparent Kd, the geometric mean of the replicates that gave a signal; lower means stronger binding. "no signal" marks a missing value. The strain was present, yet no cells mated with the target were sequenced in any replicate, which points to weak or no binding. Empty control strains, which show no peptide, gave a signal in 15% of pairings with library AAYL49; the median was 11 µM and 95% of these signals were weaker than 680 nM. No background was subtracted.

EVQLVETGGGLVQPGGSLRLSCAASGFTLVMYGISWVRQAPGKGPEWVSVIYSDGRRTFAGDSVKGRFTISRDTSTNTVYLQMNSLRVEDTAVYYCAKGRAAGTFDSWGQGTLVTVSS: no signal (0 of 3 replicates).
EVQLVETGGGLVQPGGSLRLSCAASGFTLNSYGISWVRQAPGKGPEWVSVTYSDGRRTFSGDSVKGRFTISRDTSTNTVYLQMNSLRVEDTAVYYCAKGRAAGTFWSWGQGTLVTVSS: 1.3 µM (1 of 3 replicates).
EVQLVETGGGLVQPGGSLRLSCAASGFTLNSYGISWVRQAPGKGPEWVSVQYSDGRRTFAGDAVKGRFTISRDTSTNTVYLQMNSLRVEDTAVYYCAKGRAAGTFDSWGQGTLVTVSS: no signal (0 of 3 replicates).
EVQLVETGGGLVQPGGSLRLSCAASGFTLNSYGISWVRQAPGKGPEWVSVIYSDGRKTFHGDSVSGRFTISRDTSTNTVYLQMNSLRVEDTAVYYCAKGRAAGTFDSWGQGTLVTVSS: no signal (0 of 3 replicates).
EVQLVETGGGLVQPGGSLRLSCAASGTTLNSYGISWVRQAPGKGPEWVSVIYSDGRRTKKGDSVKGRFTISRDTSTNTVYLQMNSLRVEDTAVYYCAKGRAAGTFDSWGQGTLVTVSS: no signal (0 of 3 replicates).
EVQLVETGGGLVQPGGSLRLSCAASGFTLTSYGISWVRQAPGKGPEWVSVIYSDGRRTFTGDSVGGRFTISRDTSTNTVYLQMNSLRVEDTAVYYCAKGRAAGTFDSWGQGTLVTVSS: 42 µM (1 of 3 replicates).
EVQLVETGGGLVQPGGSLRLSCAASGQTLNSYGISWVRQAPGKGPEWVSVIYSDGRRTFRGDSVKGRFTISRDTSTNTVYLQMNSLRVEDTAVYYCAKGCAAGTFDSWGQGTLVTVSS: no signal (0 of 3 replicates).
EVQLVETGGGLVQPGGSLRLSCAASGFTLNSYGISWVRQAPGKGPEWVSVIYSDGRRTFHGMSVKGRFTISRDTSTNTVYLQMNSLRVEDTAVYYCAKGWAAGTFDSWGQGTLVTVSS: no signal (0 of 3 replicates).
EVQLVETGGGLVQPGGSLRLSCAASGFTLNSYGIKWVRQAPGKGPEWVSVIYSDGRRTFQKDSVKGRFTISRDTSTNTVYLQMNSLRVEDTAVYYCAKGRAAGTFDSWGQGTLVTVSS: 140 nM (3 of 3 replicates).
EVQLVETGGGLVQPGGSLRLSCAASGFTLNSYGISWVRQAPGKGPEWVSVIYSDGRRTFTGDSVWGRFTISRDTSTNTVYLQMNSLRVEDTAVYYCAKGRAAGTFNSWGQGTLVTVSS: 520 nM (3 of 3 replicates).
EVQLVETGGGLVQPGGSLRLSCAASGFTLNSYGISWVRQAPGKGPEWVSVIYSDGRRTFVGDSVYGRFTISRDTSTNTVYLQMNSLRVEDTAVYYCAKGSAAGTFDSWGQGTLVTVSS: 8.9 µM (3 of 3 replicates).
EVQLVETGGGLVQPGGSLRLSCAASGITLNSYGISWVRQAPGKGPEWVSVIYSDGRRTFMGDSVKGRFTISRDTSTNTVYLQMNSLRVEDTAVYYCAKGRAAGTFGSWGQGTLVTVSS: 51 µM (1 of 3 replicates).
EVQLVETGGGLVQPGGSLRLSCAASGFTLNSYGISWVRQAPGKGPEWVSVIYSDGRRTFKGDSVKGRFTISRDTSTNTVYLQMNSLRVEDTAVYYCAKGRAALTFDSWGQGTLVTVSS: no signal (0 of 3 replicates).
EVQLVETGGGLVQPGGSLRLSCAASGFPLNSYGISWVRQAPGKGPEWVSVIYSDGRRIFEGDSVKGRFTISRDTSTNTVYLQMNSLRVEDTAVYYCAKGRAAGTFDSWGQGTLVTVSS: 3.2 µM (3 of 3 replicates).
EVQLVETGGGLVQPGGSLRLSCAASGFTLNSYAISWVRQAPGKGPEWVSVIYSDGRRTFTGDSVVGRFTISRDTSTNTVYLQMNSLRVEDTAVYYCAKGRAAGTFDSWGQGTLVTVSS: no signal (0 of 3 replicates).
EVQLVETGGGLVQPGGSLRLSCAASGFTLNSYGISWVRQAPGKGPEWVSVIYSDGRRTFSGDSVEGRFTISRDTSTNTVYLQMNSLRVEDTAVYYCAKGRAAGTFDSWGQGTLVTVSS: 1.4 µM (1 of 3 replicates).
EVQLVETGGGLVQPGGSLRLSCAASGFTLNSYWISWVRQAPGKGPEWVSVIYSDGRRTFEGDSVKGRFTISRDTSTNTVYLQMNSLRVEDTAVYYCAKGRAAGTNDSWGQGTLVTVSS: no signal (0 of 3 replicates).
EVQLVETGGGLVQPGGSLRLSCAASGFTLQSYGISWVRQAPGKGPEWVSVIYSDGPRTFQGDSVKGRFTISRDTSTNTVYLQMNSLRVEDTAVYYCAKGRAAGTFDSWGQGTLVTVSS: 3.6 µM (2 of 3 replicates).

Top 2 of the variants detected in all replicates, tightest first:

With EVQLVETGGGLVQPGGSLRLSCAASGFTLNSYGIKWVRQAPGKGPEWVSVIYSDGRRTFQKDSVKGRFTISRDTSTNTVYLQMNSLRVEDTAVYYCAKGRAAGTFDSWGQGTLVTVSS the result was 140 nM (3 of 3 replicates).
With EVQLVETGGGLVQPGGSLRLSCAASGFTLNSYGISWVRQAPGKGPEWVSVIYSDGRRTFTGDSVWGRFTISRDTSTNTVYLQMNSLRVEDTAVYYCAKGRAAGTFNSWGQGTLVTVSS the result was 520 nM (3 of 3 replicates).